# Antibody variant affinities, Ab-14 light chain, assay 1

From the AlphaSeq antibody data of Engelhart et al. 2022 (doi:10.1038/s41597-022-01779-4), copy in the FLAb collection.

All variants were tested on one target, the spike HR2 peptide PDVDLGDISGINAS (SARS-CoV-2).

The variants keep the heavy chain, the linker and the frameworks of Ab-14 (scFv order VH, the linker GGGGSGGGGSGGGGS, VL).
VH: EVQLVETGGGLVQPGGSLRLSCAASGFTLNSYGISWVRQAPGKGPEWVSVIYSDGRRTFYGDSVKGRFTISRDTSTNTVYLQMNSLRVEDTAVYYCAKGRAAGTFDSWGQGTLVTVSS
VL: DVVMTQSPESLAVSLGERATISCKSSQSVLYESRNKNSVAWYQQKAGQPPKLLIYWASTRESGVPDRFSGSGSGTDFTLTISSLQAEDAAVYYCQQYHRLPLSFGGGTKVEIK

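Variants in AAYL50 differ from the parent at up to three CDR positions; double and triple changes were sampled at random. AlphaSeq pools MATa yeast showing the antibodies with MATalpha yeast showing the peptide. After mating in shaken culture at 30 °C for 16 h, diploids were selected and their barcode pairs sequenced. Scores were corrected for input abundance and mapped to Kd with protein pairs of known affinity run in the same pool. Mating was done three times.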

The parent's light chain CDRs are KSSQSVLYESRNKNSVA, WASTRES, QQYHRLPLS; each variant's own CDRs replace them letter for letter. This list gathers variants with a substitution at P101 (VL, numbered from residue 1). Each Kd is an estimate from the mating assay, the geometric mean of the replicates in which the pair was seen; lower is stronger. "no signal" marks a missing value. The strain was present, yet no cells mated with the target were sequenced in any replicate, which points to weak or no binding. Background: pairings of library AAYL50 with three empty control strains gave a value in 18% of cases (median 15 µM, 5th percentile 970 nM). Values in that range, when seen in few replicates, are hard to tell from nonspecific mating.

The variant KSSQSVLYSSRNKNSVA, WASTRES, QQYHRLYLS showed 66 nM (3 of 3 replicates).
The variant KSSQSVFYESRNKNSVA, WAFTRES, QQYHRLELS showed no signal (0 of 3 replicates).
The variant KYSQSVLYESRNKNEVA, WASTRES, QQYHRLALS showed 190 µM (1 of 3 replicates).
The variant KSSQSVLYESRNKNSVA, TASTRES, QQYHRLVLW showed 89 nM (3 of 3 replicates).
The variant KSSQSVLYESRNKNSNA, WASDRES, QQYHRLRLS showed 110 µM (3 of 3 replicates).
The variant KSNQSVLYESRNKNSVA, WASTRES, QQKHRLTLS showed 13 µM (1 of 3 replicates).
The variant KSHQSVLYESRNKNSVA, WASTHES, QQYHRLQLS showed 150 nM (3 of 3 replicates).
The variant KSSQSVLYESRNKNSVA, WFSTRES, QQYHRLLLE showed 24 µM (2 of 3 replicates).
The variant KSSQSVLYESRNKNSVA, WASTFES, QQYHRLFLS showed 160 µM (1 of 3 replicates).
The variant KSSQSVLYCSRNKNSVA, WASTRES, QQYHRIMLS showed no signal (0 of 3 replicates).
The variant KSSQSVLYESRNKNSVA, WASTRES, QQYYRPFLS showed 7.0 nM (3 of 3 replicates).
The variant KSSHSVLYESRNKNSVA, WASVRES, QQYHRLHLS showed 110 µM (2 of 3 replicates).
The variant KSSQSVLYESRNKNSCA, WASTRES, QQYHRLRLH showed 120 µM (2 of 3 replicates).
The variant KSSQSQLYESRNKNSVA, WALTRES, QQYHRLRLS showed 1.9 µM (3 of 3 replicates).
The variant KSSQSVLYVSRNKNSVA, WASTRES, QQYWRLYLS showed 350 µM (2 of 3 replicates).
The variant KSSQSVLYESRNCNSVA, WASTRES, QQYHRLWLA showed 8.9 nM (3 of 3 replicates).
The variant KSSQSVLYESRNKTSVA, WASTREC, QQYHRLFLS showed 190 µM (2 of 3 replicates).
The variant KVSDSVLYESRNKNSVA, WASTRES, QQYHRLMLS showed 5.0 µM (3 of 3 replicates).
The variant KSSQSVLYESRNKNSVA, WASTRES, QQYHRLGLS showed 250 nM (2 of 3 replicates).
The variant KSSQSVLYESRNKNSVA, WASTRFS, QQYHMLSLS showed no signal (0 of 3 replicates).
The variant KSSQSWLYESRNKNSVT, WASTRES, QQYHRLQLS showed no signal (0 of 3 replicates).
The variant KSSQSVLYESRNKNSVA, WASTRES, QSYHRLKLF showed 4.7 nM (3 of 3 replicates).
The variant KSSQSVLYESRNKNSVA, EISTRES, QQYHRLRLS showed 310 µM (3 of 3 replicates).
The variant KKSQSVLYESRNKNAVA, WASTRES, QQYHRLWLS showed 19 nM (3 of 3 replicates).
The variant KSSQSVLYESRNKNSVA, WASIRES, QQYHRLWHS showed 14 nM (3 of 3 replicates).
The variant KSSESVLYESRNKNSVA, WASTRES, QQKHRLLLS showed no signal (0 of 3 replicates).
The variant KSSQSVLYESRNKNSVA, WASTRES, QQYHRLCLA showed no signal (0 of 3 replicates).
The variant KSSQSVLYRSRNKNSVA, WASWRES, QQYHRLLLS showed 1.9 µM (1 of 3 replicates).
The variant KSWQSVLYESRNKNSVA, WASCRES, QQYHRLALS showed no signal (0 of 3 replicates).
The variant TASQSVLYESRNKNSVA, WASTRES, QQYHRLALS showed 3.0 µM (3 of 3 replicates).

The 4 strongest on average among those seen in every replicate, once more:

Variant KSSQSVLYESRNKNSVA, WASTRES, QSYHRLKLF gave 4.7 nM (3 of 3 replicates).
Variant KSSQSVLYESRNKNSVA, WASTRES, QQYYRPFLS gave 7.0 nM (3 of 3 replicates).
Variant KSSQSVLYESRNCNSVA, WASTRES, QQYHRLWLA gave 8.9 nM (3 of 3 replicates).
Variant KSSQSVLYESRNKNSVA, WASIRES, QQYHRLWHS gave 14 nM (3 of 3 replicates).